Literature values, collected in US20240226024A1 (Empros Pharma AB, priority 2021, published 2024).

Details: oral administration

Fraction of the dose absorbed: less than 5%
SMILES: C[C@H]1O[C@H](O[C@H]2[C@H](O)[C@@H](O)[C@@H](O[C@H]3[C@H](O)[C@@H](O)C(O)O[C@@H]3CO)O[C@@H]2CO)[C@H](O)[C@@H](O)[C@@H]1N[C@H]1C=C(CO)[C@@H](O)[C@H](O)[C@H]1O (stereo partly drawn) [acarbose, O-4,6-Dideoxy-4-[[(1S,4R,5S,6S)-4,5,6-trihydroxy-3-(hydroxymethyl)cyclohex-2-enyl]amino]-α-D-glucopyranosyl-(1→4)-O-α-D-gluco-pyranosyl-(1→4)-D-glucopyranose]
